The structures appear in SMILES notation.

The assay has as its system patient, habitual or occasional smoker, exposed to tobacco smoke. The assay is described as follows: Aiding smoking cessation in patients with reversible cholinesterase inhibitors, alone or combined (Examples 2, 4, 5, Comparative Example). To be noted: for aid in smoking cessation by a single reversible cholinesterase inhibitor: single agent, general statement, dose not given.

[1] abbreviates: Comparative Example, habitual smoker, 5 mg donepezil daily for one year.

`COc1cc2c(cc1OC)C(=O)C(CC1CCN(Cc3ccccc3)CC1)C2` (stereo not shown): the “aid in smoking cessation by a single reversible cholinesterase inhibitor” value is reported as “does not appear to aid in smoking cessation programs”. Further, under setting [1], the “effect on bowel movements” value is on record as “moved their bowels more frequently” and the smoking cessation outcome is “the effect was not strong enough to aid smoking cessation”.
On to `CCN(C)C(=O)Oc1cccc([C@H](C)N(C)C)c1`, for which the “aid in smoking cessation by a single reversible cholinesterase inhibitor” value is given as “does not appear to aid in smoking cessation programs”.

These data come from US20090156561A1, “Use of Cholinesterase Inhibitors In Smoking Cessation” (published 2009).
